Values quoted from earlier work, collected in patent US10981866B2, “Chemical conjugates of Evans Blue derivatives and their use as radiotherapy and imaging agents” (THE UNITED STATES OF AMERICA, AS REPRESENTED BY THE …, priority 2017, dated 2021).

By UniProt entry, the sequences of proteins in these tests, tags left out. Residues count along the entry.
UniProt P02768, 25-609: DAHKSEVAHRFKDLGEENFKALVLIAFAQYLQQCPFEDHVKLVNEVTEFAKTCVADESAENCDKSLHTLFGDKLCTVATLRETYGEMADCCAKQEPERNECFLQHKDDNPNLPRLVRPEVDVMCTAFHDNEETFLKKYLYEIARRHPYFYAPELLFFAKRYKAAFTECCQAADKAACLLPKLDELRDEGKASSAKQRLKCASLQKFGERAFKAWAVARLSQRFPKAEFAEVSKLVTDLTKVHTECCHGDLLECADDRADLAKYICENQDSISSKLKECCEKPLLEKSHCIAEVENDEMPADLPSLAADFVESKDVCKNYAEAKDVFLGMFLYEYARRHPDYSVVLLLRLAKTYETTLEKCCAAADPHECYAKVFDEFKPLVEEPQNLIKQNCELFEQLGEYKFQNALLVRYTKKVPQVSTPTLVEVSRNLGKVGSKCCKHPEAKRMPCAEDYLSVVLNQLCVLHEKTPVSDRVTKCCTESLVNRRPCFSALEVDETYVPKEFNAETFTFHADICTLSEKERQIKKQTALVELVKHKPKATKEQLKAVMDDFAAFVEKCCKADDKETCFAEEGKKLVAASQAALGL

Legend:
albumin = albumin (Homo sapiens, UniProt P02768); details: read-out: published binding affinity to albumin; published value; cited from earlier work
[1] = cited from earlier work

Evans Blue
Kd (albumin): ~2500 nM

GLP-1-(7-37)
half-life ([1]; degradation by ubiquitous enzymes): 1.5 to 2 min

liraglutide [reference compound]
plasma half-life ([1]; after subcutaneous administration): 11 to 15 h
